How the values were obtained:
cathepsin G = biological target: T1, cathepsin G (Homo sapiens, UniProt P08311); assay: Cleavage of peptides by purified cathepsin G, MALDI-TOF/TOF; details: 25 nM protease, 10 µM peptide, 37 °C, 2, 5, 10 and 30 min, stopped with 2% TFA
T1 sequence (P08311 21-255): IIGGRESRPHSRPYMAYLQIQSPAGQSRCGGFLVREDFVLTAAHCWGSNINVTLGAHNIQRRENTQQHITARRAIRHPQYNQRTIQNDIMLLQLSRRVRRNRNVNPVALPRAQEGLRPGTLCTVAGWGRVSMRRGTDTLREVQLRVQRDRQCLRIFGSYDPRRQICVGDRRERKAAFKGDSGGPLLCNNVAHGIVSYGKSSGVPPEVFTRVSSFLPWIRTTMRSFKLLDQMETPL
Excerpt: (§1) Trypsin-like proteases included in the experiments are trypsin-1, -2 and -3, tryptase (Enzo LifeSciences), thrombin (Sigma-Aldrich) and cathepsin G (Sigma-Aldrich). Trypsin-1, -2 and -3 were produced as described by Koistinen et al. and Wu et al.. Two elastase-like enzymes, neutrophil elastase (Enzo LifeSciences, Farmingdale, NY, USA) and pancreatic elastase I (Sigma-Aldrich) were included as well. All enzymes were from human origin except for pancreatic elastase from porcine pancreas.
(§2) Reaction mixtures with purified enzymes were compiled in an identical way. […]
(§3) MS and MS/MS data for peptide fragment identification were obtained with a MALDI-TOF/TOF instrument (4800 MALDI TOF/TOF™, Applied Biosystems, Waltham, MA, USA) and instrument parameters were set using 4000 Series Explorer™ software. MS spectra were recorded in positive reflector mode in a mass range from 500 to 4000 Da and laser intensity of 4500–4800 Hz. […] MS/MS spectra were recorded with high-energy collision-induced dissociation and the laser intensity was increased by 10%.
(§4) Identified fragments were confirmed using the MS/MS spectra and mMass 5.5.0 by Martin Strohalm. The relative intensities of the fragments were calculated as the ratio of the intensity of the peak of interest to the intensity of the peak of the standard peptide.

By UniProt entry, the sequences of proteins in these tests, tags left out. Residues count along the entry.
UniProt P00772, 27-266: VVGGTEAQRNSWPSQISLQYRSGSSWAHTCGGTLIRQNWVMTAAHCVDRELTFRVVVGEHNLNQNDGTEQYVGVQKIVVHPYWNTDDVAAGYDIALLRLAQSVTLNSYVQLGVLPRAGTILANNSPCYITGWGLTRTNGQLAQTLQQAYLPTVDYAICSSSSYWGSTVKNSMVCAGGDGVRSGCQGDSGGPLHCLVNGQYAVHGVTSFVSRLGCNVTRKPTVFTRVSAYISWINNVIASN

neutrophil elastase = biological target: T2, neutrophil elastase (Homo sapiens, UniProt P08246); assay: Cleavage of peptides by purified neutrophil elastase, MALDI-TOF/TOF; details: 25 nM protease, 10 µM peptide, 37 °C, 2, 5, 10 and 30 min, stopped with 2% TFA
T2 sequence (P08246 30-267): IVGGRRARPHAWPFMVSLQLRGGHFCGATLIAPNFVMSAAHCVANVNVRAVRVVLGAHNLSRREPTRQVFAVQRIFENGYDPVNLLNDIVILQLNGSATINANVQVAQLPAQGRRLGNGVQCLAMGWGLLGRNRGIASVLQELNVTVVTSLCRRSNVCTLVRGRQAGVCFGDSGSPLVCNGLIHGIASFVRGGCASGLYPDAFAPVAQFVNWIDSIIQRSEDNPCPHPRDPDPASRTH
Excerpt: as §1, §2, §3, §4

pancreatic elastase I = pancreatic elastase I (Sus scrofa, UniProt P00772); assay: Cleavage of peptides by purified pancreatic elastase, MALDI-TOF/TOF; details: 25 nM protease, 10 µM peptide, 37 °C, 2, 5, 10 and 30 min, stopped with 2% TFA
Excerpt: as §1, §2, §3, §4

[1] = Cleavage of peptides by colonic tissue lysates from TNBS-induced colitis rat model, MALDI-TOF/TOF; details: rat colonic lysate, 10 µM peptide, 20 µg/mL protein, 37 °C, 5-30 min, stopped with 2% TFA, MALDI-TOF/TOF relative intensity vs standard peptide, n = 8 animals
Protocol: Adult male Sprague–Dawley rats (200–225 g; Charles River, Wilmington, MA, USA) were used in a previously described TNBS-induced acute and post-inflammatory model. Rats were housed at constant room temperature (22 ± 2 °C) and humidity (60%) with two rats per cage, unlimited access to water and food and on a 12 h–12 h light/dark cycle.
After an overnight fast, TNBS colitis was induced using a TNBS-enema (4 mg TNBS; Sigma-Aldrich, 50% ethanol) as described previously. Rats were anesthetized with a mixture of ketamine (35 mg/kg i.p.; Ketalar®, Pfizer, New York City, NY, USA) and xylazine (5 mg/kg i.p.; Rompun®, Bayer, Leverkusen, Germany), and the TNBS-enema or 0.9% saline was administered intrarectally using a flexible catheter (18 G, length 4.5 cm) to colitis and control rats, respectively. Animals were kept in a tail-up position for 1 min and were then allowed to recover in their cages with free access to water and food. […]
MS and MS/MS data for peptide fragment identification were obtained with a MALDI-TOF/TOF instrument (4800 MALDI TOF/TOF™, Applied Biosystems, Waltham, MA, USA) and instrument parameters were set using 4000 Series Explorer™ software. MS spectra were recorded in positive reflector mode in a mass range from 500 to 4000 Da and laser intensity of 4500–4800 Hz.

## CSCC[C@H](NC(=O)[C@H](Cc1ccccc1)NC(=O)CNC(=O)CNC(=O)[C@@H](N)Cc1ccc(O)cc1)C(=O)O [M-enkephalin, Met-enkephalin]
Cathepsin G
  Efficiency of the first cleavage in the peptide, Cathepsin G: −
Neutrophil elastase
  Efficiency of the first cleavage in the peptide, Neutrophil Elastase: −
Pancreatic elastase I
  Efficiency of the first cleavage in the peptide, Pancreatic Elastase: + (processing after 10 or 30 min)
[1]
  Incubation time after which processing was significant (decrease of full-length peptide or increase of fragment), control samples: not with control samples

Reference: article PMC8509398, “Proteolytic Cleavage of Bioactive Peptides and Protease-Activated Receptors in Acute and Post-Colitis” (International Journal of Molecular Sciences, 2021)
